# Sampled rows, rich in hits. Any-hit rate of the full collection: about 2.2%.
# SIRT5 inh: sirtuin-5 (human) deacylase inhibition | Q9NXA8 | Purified SirT5, succinyl-peptide AMC, trypsin-coupled fluorescence | inhibition, % at 15 µM | hit rate 1.1% among 330,000 | AID 652115; in the data active = inhibition above about 15%
# ERp5 block: blocks human ERp5 reductase activity on insulin; hit rate 0.05% among 350,000; inhibition, % at 9.99 µM; Q15084; ERp5 insulin aggregation, absorbance 650 nm, 90 min;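 active = mean replicate inhibition above about 25%, with every replicate also reaching it, limit read from the data, passing the limit was not always enough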
# S100A4 inh HTS: S100A4-myosin IIA interaction inhibition; P26447; hit rate 0.14% among 360,000; inhibition, % at 10.7 µM; S100A4/TAMRA-MyoIIA peptide fluorescence polarization;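 active = mean inhibition of at least 70% across replicates, with every replicate also reaching that level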
#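 Compound dosing: one dose per compound; test system: human S100A4 monomer with TAMRA-labelled myosin IIA peptide; probe or stimulus: TAMRA-labelled myosin IIA heavy-chain peptide probe, 5 nM; medium: HEPES buffer with Ca2+, pH 7.2; schedule: 5 min incubation before reading; benchmarks: neutral control DMSO, positive control TFP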
# FGF22 binding-1: binders of recombinant human FGF22 by thermal shift; Q9HCT0; SYPRO orange fluorescence; percent of sucrose octasulfate shift, DMSO zero; activity (Tm shift, normalised), % at 9.99 µM; hit rate 1.5% among 340,000;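 active = mean Tm shift, scaled 0 neutral to 100 positive control, at about 1.3% or above, every replicate too, limit read from the data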
# UUG fidelity: modulators of start codon recognition fidelity in yeast; S. cerevisiae UUG-firefly luciferase reporter, luminescence/redox ratio; AID 602363; 350,000 tested, 0.13% active; activity score, % at 18.7 µM;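 active = replicate mean at a twofold rise or more, about +100% in these data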;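 also: firefly luciferase made from a UUG start codon reports start codon fidelity; reporter light over untreated wells divided by growth signal over untreated wells; some hits fall short of that in this replicate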
# PDI inh: PDI (human) enzyme inhibition. P07237. PDI insulin aggregation turbidity, A650, 90 min. inhibition, % at 10 µM. hit rate 0.052% among 350,000;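 active = mean inhibition across replicates of 30% or more, whatever share of single replicates reach that level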
# FGF22 binding-2: binders of human FGF22 by thermal shift | thermal shift activity, °C (ΔTm) at 38 µM | hit rate 2% among 1,000 | AID 720646 | recombinant FGF22 thermal shift, SYPRO orange fluorescence | shares compounds with FGF22 binding-1;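 active = fitted rise in melting shift crosses a set limit at or below the top valid dose tested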
# SYPRO no-protein: counter-screen for FGF22 binders: compound-only thermal shift, no protein. shares compounds with FGF22 binding-1. compound-only SYPRO orange thermal shift counter-screen. AC50, µM (series often up to 38 µM). hit rate 2% among 1,000. AID 743019;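 active = rising signal whose fitted curve reaches the 0.54 level within the top valid dose, showing a melting point, actives reach about 13 µM in these data; inactive = the rest, including activity in the opposite direction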; also: value is where the raw curve crosses a fixed level and not half-maximal
# Active calls of the source: *; i = inactive; . = no result; [ ] = another dose, or the depositor's remark.
SMILES,SIRT5 inh,ERp5 block,S100A4 inh HTS,FGF22 binding-1,UUG fidelity,PDI inh,FGF22 binding-2,SYPRO no-protein
C[C@H](CO)N1C[C@H](C)[C@H](CN(C)S(=O)(=O)c2cn(C)cn2)OCCCC[C@H](C)Oc2ccc(NS(=O)(=O)c3cccs3)cc2C1=O,3,5,7,0,7,.,.,.
CC(C)C#Cc1cnc2c(c1)C(=O)N([C@@H](C)CO)C[C@H](C)[C@H](CN(C)C(=O)c1cnccn1)O2,3,-3,6,1.3*,1,.,0.16[42 µM],i
COCC#Cc1cnc2c(c1)C(=O)N([C@H](C)CO)C[C@H](C)[C@H](CN(C)C(=O)c1cnccn1)O2,5,-4,1,3.2*,-6,.,0.075,i
COc1ccc(S(=O)(=O)N(C)C[C@@H]2OCCCC[C@H](C)Oc3ccc(NS(=O)(=O)c4c(C)noc4C)cc3C(=O)N([C@H](C)CO)C[C@H]2C)cc1,5,-2,-19,0,11,.,.,.
C[C@H]1CN([C@@H](C)CO)C(=O)c2cccc(NC(=O)c3ccc(-c4nccs4)cc3)c2O[C@H]1CN(C)C,2,2,8,0,-3,.,.,.
C[C@@H]1CN([C@@H](C)CO)C(=O)c2cccc(NS(=O)(=O)c3cn(C)cn3)c2O[C@@H]1CN(C)S(=O)(=O)c1ccc(Cl)cc1,7,-1,-7,1.5*,4,.,0.16,i
C[C@@H]1CN([C@@H](C)CO)C(=O)c2cccc(NC(=O)c3ccc(-c4nccs4)cc3)c2O[C@@H]1CN(C)C,0,-2,8,5.0*,-1,.,0.098,i
C[C@H]1CN([C@@H](C)CO)C(=O)CCCn2cc(nn2)CO[C@@H]1CN(C)Cc1cccc(C(=O)O)c1,-1,-4,2,1.3*,4,.,-0.018,i
C[C@H](CO)N1C[C@H](C)[C@@H](CN(C)S(=O)(=O)c2ccc(Cl)cc2)Oc2c(NS(=O)(=O)c3cn(C)cn3)cccc2C1=O,1,-3,3,0,-3,.,.,.
C[C@@H]1CN([C@H](C)CO)C(=O)CCCn2cc(nn2)CO[C@H]1CN(C)Cc1ccccc1,-3,5,-42,0,11,.,.,.
COc1ccc(S(=O)(=O)N(C)C[C@@H]2Oc3c(NC(=O)c4cc(C)nn4C)cccc3C(=O)N([C@H](C)CO)C[C@H]2C)cc1,1,4,11,1.3*,11,.,0.088[42 µM],i
COc1ccc(S(=O)(=O)N(C)C[C@H]2Oc3c(NC(=O)c4cc(C)nn4C)cccc3C(=O)N([C@@H](C)CO)C[C@@H]2C)cc1,3,1,10,1,-2,.,.,.
COCC(=O)N(C)C[C@@H]1Oc2cc(C#Cc3cccnc3)ccc2S(=O)(=O)N([C@@H](C)CO)C[C@H]1C,3,-2,7,0,.,.,.,.
C[C@H](CO)N1C[C@H](C)[C@H](CN(C)C(=O)Cc2cccnc2)Oc2ncc(C#CCc3ccccc3)cc2C1=O,4,-4,2,1,10,.,.,.
C[C@@H]1CN([C@@H](C)CO)C(=O)c2cccc(N(C)C)c2O[C@H]1CN(C)Cc1ccc(C(=O)O)cc1,-4,2,0,2.7*,-12,.,0.16[42 µM],i
C[C@@H]1CN([C@@H](C)CO)C(=O)c2cccc(NC(=O)C3CC3)c2O[C@H]1CN(C)Cc1ccncc1,2,-6,-4,1.2*,3,.,0.096,i
C[C@H](CO)N1C[C@H](C)[C@@H](CN(C)S(=O)(=O)c2ccccc2)Oc2c(NC(=O)C3CC3)cccc2C1=O,0,-5,0,2.6*,4,-4,0.092,i
COc1ccc2o/c(=N\O)c(C(=O)Nc3ccc(C)cc3)cc2c1,0,-1,5,2.3*,.,-4,0.091,i
C[C@H]1CN([C@@H](C)CO)C(=O)c2cc(NC(=O)C3CC3)ccc2O[C@H]1CN(C)C(=O)Nc1ccc(C(F)(F)F)cc1,2,-2,4,0,12,.,.,.

# Shown with two lines to a compound: 2 of the compounds above
# Sequence of screens: SIRT5 inh | ERp5 block | S100A4 inh HTS | FGF22 binding-1 | UUG fidelity | PDI inh | FGF22 binding-2 | SYPRO no-protein
> C[C@H]1CN([C@@H](C)CO)C(=O)c2cccc(NC(=O)c3ccc(-c4nccs4)cc3)c2O[C@H]1CN(C)C
  2 | 2 | 8 | 0 | -3 | . | . | .
> COCC(=O)N(C)C[C@@H]1Oc2cc(C#Cc3cccnc3)ccc2S(=O)(=O)N([C@@H](C)CO)C[C@H]1C
  3 | -2 | 7 | 0 | . | . | . | .

# Assay outcomes deposited in PubChem by Broad Institute.
